Where two headings read alike, the source gives them in different places.
How the values were obtained:
[1] = Electroconductivity in fluorinated solvent B (HFE7100/DMC 80:20); assay type: physicochemical
[2] = 1 M in PC; platinum working electrode, lithium counter/reference; sweep 10 mV/sec

Substance: Lithium Tetrakis (Chlorodifluoroacetate) Borate [LB5]
- concentration at which maximum electroconductivity was obtained (solvent A: PC/DMC 1:2): 0.8 M
- maximum electroconductivity (solvent A: PC/DMC 1:2): 6.2 mS/cm
- improvement of electroconductivity by factor (solvent A, versus lithium bis-salicylate borate (comparative example 1)): up to 14.4
- concentration at which maximum electroconductivity was obtained ([1]; solvent B: HFE7100/DMC 80:20): 0.6 M
- maximum electroconductivity ([1]; solvent B: HFE7100/DMC 80:20): 1.8 mS/cm
- improvement of electroconductivity ([1]; solvent B, versus LiN (SO2CF3)2): 2.6 times
- potential from which significant changes in oxidation current are observed (oxidation decomposition potential) [2]: 6.8 V

From patent US6824928B2, “Organic borate compounds and the nonaqueous electrolytes and lithium secondary batteries using the compounds” (Hitachi, Ltd., priority 2000, dated 2004)
